Values of other authors in patent US20210137911A1, “NOVEL CHRONOTHERAPY BASED ON CIRCADIAN RHYTHMS” (THE TRUSTEES OF THE UNIVERSITY OF PENNSYLVANIA, priority 2014, published 2021).

Conditions: in vivo

B1: Ibritumomab (antibody, chains of the INN, looked up)
heavy: QAYLQQSGAELVRPGASVKMSCKASGYTFTSYNMHWVKQTPRQGLEWIGAIYPGNGDTSYNQKFKGKATLTVDKSSSTAYMQLSSLTSEDSAVYFCARVVYYSNSYWYFDVWGTGTTVTVSAPSVYPLAPVCGDTTGSSVTLGCLVKGYFPEPVTLTWNSGSLSSGVHTFPAVLQSDLYTLSSSVTVTSSTWPSQSITCNVAHPASSTKVDKKIEPRGPTIKPCPPCKCPAPNLLGGPSVFIFPPKIKDVLMISLSPIVTCVVVDVSEDDPDVQISWFVNNVEVHTAQTQTHREDYNSTLRVVSALPIQHQDWMSGKEFKCKVNNKDLPAPIERTISKPKGSVRAPQVYVLPPPEEEMTKKQVTLTCMVTDFMPEDIYVEWTNNGKTELNYKNTEPVLDSDGSYFMYSKLRVEKKNWVERNSYSCSVVHEGLHNHHTTKSFSR
light: QIVLSQSPAILSASPGEKVTMTCRASSSVSYMHWYQQKPGSSPKPWIYAPSNLASGVPARFSGSGSGTSYSLTISRVEAEDAATYYCQQWSFNPPTFGAGTKLELKRADAAPTVFIFPPSDEQLKSGTASVVCLLNNFYPREAKVQWKVDNALQSGNSQESVTEQDSKDSTYSLSSTLTLSKADYEKHKVYACEVTHQGLSSPVTKSFN
In the case of B1, the “½ Life” value is listed as 0.8 h.
